Literature values, collected in patent publication US20200353057A1, “REDUCING IMMUNOGENICITY TO PEGLOTICASE” (Horizon Pharma Rheumatology LLC, priority 2019, published 2020).

Test system: participants taking colchicine for gout flare prophylaxis
Settings: prophylaxis of gout

COc1cc2c(c(OC)c1OC)-c1ccc(OC)c(=O)cc1[C@@H](NC(C)=O)CC2 [colchicine]
Diarrhea: 23%
Pharyngolaryngeal pain: 3%
